Reference: ChEMBL document CHEMBL5365417, “The development of diphenyleneiodonium analogs as GPR3 agonists” (Bioorg Med Chem Lett, 2023)

Chains of the proteins cited; added tags and fusions are not shown. Lines headed by an entry give the natural chain unless they say otherwise; changes in a name come on top.
UniProt P46089: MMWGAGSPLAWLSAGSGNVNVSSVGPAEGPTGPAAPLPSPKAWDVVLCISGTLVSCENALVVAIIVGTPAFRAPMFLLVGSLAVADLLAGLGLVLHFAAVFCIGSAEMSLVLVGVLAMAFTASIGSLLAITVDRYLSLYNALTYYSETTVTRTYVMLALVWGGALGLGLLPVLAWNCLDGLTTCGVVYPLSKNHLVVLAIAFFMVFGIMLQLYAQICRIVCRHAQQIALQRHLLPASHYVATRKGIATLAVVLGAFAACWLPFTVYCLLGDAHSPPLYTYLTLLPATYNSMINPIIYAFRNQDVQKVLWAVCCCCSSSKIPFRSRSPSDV

Target: G-protein coupled receptor 3 (Homo sapiens, UniProt P46089)
Assay: Agonist activity at human GPR3 expressed in HEK293 cells assessed as increase in cAMP accumulation incubated for 30 mins by HTRF assay
Format: functional, cell-based

| Structure (SMILES) | EC50 [µM] |
| --- | --- |
| c1ccc2c(c1)[I+]c1ccccc1-2 [DIPHENYLENEIODONIUM CHLORIDE] | 5.17 |
| c1ccc2c(c1)[I+]c1ccccc1-2 | 3.86 |
